US9290459B1, “Substituted bicyclic dihydropyrimidinones and their use as inhibitors of neutrophil elastase activity” (Boehringer Ingelheim International GmbH, priority 2013, dated 2016)

Chains of the proteins cited; added tags and fusions are not shown. Residues count along the entry.
UniProt P08246, 30-247: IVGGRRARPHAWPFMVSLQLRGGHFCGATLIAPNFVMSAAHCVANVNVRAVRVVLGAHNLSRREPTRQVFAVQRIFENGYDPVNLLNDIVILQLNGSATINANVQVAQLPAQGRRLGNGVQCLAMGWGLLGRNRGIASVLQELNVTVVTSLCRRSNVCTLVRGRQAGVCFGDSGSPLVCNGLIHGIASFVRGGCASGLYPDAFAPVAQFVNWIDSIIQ
UniProt P11712, whole entry: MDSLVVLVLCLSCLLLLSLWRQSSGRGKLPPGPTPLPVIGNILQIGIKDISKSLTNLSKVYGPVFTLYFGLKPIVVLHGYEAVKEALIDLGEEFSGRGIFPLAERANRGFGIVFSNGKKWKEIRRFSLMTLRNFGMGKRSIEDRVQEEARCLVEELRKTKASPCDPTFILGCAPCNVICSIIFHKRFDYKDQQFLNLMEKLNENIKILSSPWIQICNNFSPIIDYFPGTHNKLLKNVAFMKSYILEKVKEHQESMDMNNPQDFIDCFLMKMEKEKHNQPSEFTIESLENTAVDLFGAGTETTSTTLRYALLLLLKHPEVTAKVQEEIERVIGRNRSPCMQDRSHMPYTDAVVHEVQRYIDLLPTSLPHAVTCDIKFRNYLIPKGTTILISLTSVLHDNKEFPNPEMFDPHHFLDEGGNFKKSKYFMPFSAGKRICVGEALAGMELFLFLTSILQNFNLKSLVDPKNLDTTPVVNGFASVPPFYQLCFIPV
UniProt P33261, whole entry: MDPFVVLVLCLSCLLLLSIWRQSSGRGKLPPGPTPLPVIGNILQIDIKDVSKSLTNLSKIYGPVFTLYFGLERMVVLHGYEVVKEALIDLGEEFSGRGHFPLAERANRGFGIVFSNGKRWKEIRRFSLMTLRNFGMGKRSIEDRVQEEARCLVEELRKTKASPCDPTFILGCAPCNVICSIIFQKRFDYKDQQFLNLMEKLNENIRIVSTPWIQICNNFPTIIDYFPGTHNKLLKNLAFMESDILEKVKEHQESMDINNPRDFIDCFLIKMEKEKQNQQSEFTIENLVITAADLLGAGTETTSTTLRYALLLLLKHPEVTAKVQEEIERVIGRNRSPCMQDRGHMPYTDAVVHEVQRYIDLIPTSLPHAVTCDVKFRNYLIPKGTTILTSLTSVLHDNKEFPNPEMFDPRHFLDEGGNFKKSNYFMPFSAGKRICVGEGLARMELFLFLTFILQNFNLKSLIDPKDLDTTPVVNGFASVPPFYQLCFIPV

Columns and labels:
[1] = target: neutrophil elastase in human plasma (Homo sapiens (Human), UniProt P08246); test: Neutrophil elastase inhibitory activity in human plasma (zymosan-stimulated blood); assay type: biochemical; details: neutrophil elastase enriched human plasma from zymosan-stimulated blood
[2] = target: Human neutrophil elastase (Homo sapiens (Human), UniProt P08246); test: Human Neutrophil Elastase Assay; details: substrate MeOSuc-Ala-Ala-Pro-Val-AMC 250 μM, pH 7.5
cytochrome P450 2C9 = cytochrome P450 2C9 (Homo sapiens (Human), UniProt P11712); details: read-out: CYP2C9 IC50; human liver microsomes, Diclofenac hydroxylation
cytochrome P450 2C19 = cytochrome P450 2C19 (Homo sapiens (Human), UniProt P33261); details: read-out: CYP2C19 IC50; human liver microsomes, (S)-Mephenytoin hydroxylation

EC50 [1] [nM] | IC50 [2] [nM] | SMILES | IC50 (cytochrome P450 2C9) [nM] | IC50 (cytochrome P450 2C19) [nM]
3 |  | CN1C(=O)N(c2cccc(C(F)(F)F)c2)C2=C(C(=O)CC2)[C@H]1c1ccc(C#N)cc1 [Example 2A, (R)-4-(3-Methyl-2,5-dioxo-1-(3-(trifluoromethyl)phenyl)-2,3,4,5,6,7-hexahydro-1H-cyclopenta[d]pyrimidin-4-yl)benzonitrile] |  | 
< 1 | < 1 | CC(C)NC(=O)N1C(=O)N(c2cccc(C(F)F)c2)C2=C(C(=O)CC2)C1c1ccc(C#N)cc1S(C)(=O)=O (stereo not shown) [Example 53.4] |  | 
 |  | N#Cc1ccc([C@@H]2C3=C(CCC3=O)N(c3cccc(C(F)(F)F)c3)C(=O)N2C(=O)NCCO)cc1 [Example 7.2A, (R)-4-(4-Cyanophenyl)-N-(2-hydroxyethyl)-2,5-dioxo-1-(3-(trifluoromethyl)phenyl)-4,5,6,7-tetrahydro-1H-cyclopenta[d]pyrimidine-3(2H)-carboxamide] | > 50000 | > 50000
7 | 1 | CS(=O)(=O)CCNC(=O)N1C(=O)N(c2cccc(C(F)(F)F)c2)C2=C(C(=O)CC2)C1c1ccc(C#N)cc1F (stereo not shown) [Example 49.3] |  | 
